## Antibody variant affinities, Ab-14 light chain, assay B

The measurements come from Li et al. 2023 (doi:10.1038/s41467-023-39022-2) through the FLAb antibody collection.

Antigen: PDVDLGDISGINAS, a 14-residue peptide of the SARS-CoV-2 spike HR2 region.

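The starting antibody came from a phage panning campaign against this peptide. The variants were designed computationally from a first round of random CDR variants and then made and measured. Their group label is 14L_GP_Gibbs (GP: Gaussian process model; Gibbs: Gibbs sampling; a sequence that several methods proposed may carry one label only). The scFvs were displayed on barcoded MATa yeast, the peptide on MATalpha yeast. Binding brings cells together so that they mate, and sequencing counts the barcode pairs among the diploids. Each replicate has its own calibration line, from reference interactions of the BCL2 family. Mating was done six times.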

The variants keep the heavy chain, the linker and the frameworks of Ab-14 (scFv order VH, a (GGGGS)3 linker, VL).
VH: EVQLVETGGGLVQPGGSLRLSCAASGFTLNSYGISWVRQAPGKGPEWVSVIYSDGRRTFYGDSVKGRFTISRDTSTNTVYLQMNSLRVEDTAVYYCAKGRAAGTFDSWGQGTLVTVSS
VL: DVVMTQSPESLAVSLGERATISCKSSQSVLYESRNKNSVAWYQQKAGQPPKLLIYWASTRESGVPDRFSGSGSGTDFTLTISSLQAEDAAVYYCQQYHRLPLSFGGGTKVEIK

Each variant is given by its three light chain CDRs, as the data file delimits them; those of the parent are KSSQSVLYESRNKNSVA, WASTRES, QQYHRLPLS.
Scale: log10 of Kd in nM, estimated from mating counts; low values are strong binders.
Averages over replicates are reported, and they cover detected replicates only.
In the paper, a design with two or fewer of six values counts as a poor binder.
Nonspecific signal, from three strains lacking the peptide, appeared in 4% of pairings of all light chain designs, centred on 2.64 (5% of these signals below 1.59); values are not corrected for it. The control count says in how many pairings with the empty strains this scFv gave a signal.
A sequence measured in both rounds can read differently, since the two assays cover different ranges.
Of ten entries with the parent sequence, four were seen in most replicates (averages 0.34 to 2.37), three in one and three in none, so single entries are noisy.

With KASQEVLMESRNMNSVA, NASTREE, QQYHRLPLS the result was 0.02, 0.11, -0.44, -0.10, -0.27, -0.28 (mean -0.16; controls 0 of 18).
With KYPQSELYESRNQNSVA, MASQREE, QQYHRLPLS the result was 0.18, -0.05, 0.28, -0.19, -0.31, 0.06 (mean -0.01; controls 0 of 18).
With KLQQSVEYESRNKNNVA, EGSQRES, QQYHRLPLS the result was 0.11, 0.11, 0.10, 0.17, 0.08, 0.42 (mean 0.17; controls 1 of 18).
With KISQEVWYESRNKNSVA, GASQRES, QQYHRLPLS the result was 0.78, -0.02, 0.47, 0.10, 0.41, 0.38 (mean 0.35; controls 1 of 18).
With KLSGSMLYEQRMKNSVA, QASQRMS, QDYHRLPLS the result was 0.48, 0.39, 0.40, 0.40, 0.56, 0.63 (mean 0.48; controls 4 of 18).
With KVSQSHLYEERNANNVA, NASDRES, QQYHRLPLS the result was -0.32, -0.40, -0.53, -0.54, -0.55, -0.23 (mean -0.43; controls 0 of 18).
With KVSQLGLYGQRNKMSVA, DASQRED, QQYHRLPLS the result was 0.12, -0.10, -0.18, -0.26, -0.17, 0.07 (mean -0.09; controls 3 of 18).
With KSQISQWYEDRNKNSVA, SASTREE, QQYHRLPLS the result was 0.27, -0.11, 0.01, 0.34, -0.41, 0.26 (mean 0.06; controls 0 of 18).
With KLQSLEQYESRWKNNVA, SASTRSS, QQYHRLPLS the result was 0.83, 0.79, 0.86, 0.60, 0.63, 0.48 (mean 0.70; controls 2 of 18).
With KLDQSVDEKSRNKNSVA, EASTRES, QDYHRLPLS the result was 0.09, 0.19, -0.13, -0.19, 0.03, -0.07 (mean -0.01; controls 0 of 18).
With KLMQSMPYESRNANNVA, YASTREE, QQYHRLPLS the result was 0.14, -0.11, -0.13, -0.23, -0.13, 0.10 (mean -0.06; controls 0 of 18).
With KLENSNLYESRNDNSVA, NASTRYS, QQYHRLPLS the result was 0.54, 0.37, 0.23, 0.25, 0.55, 0.27 (mean 0.37; controls 1 of 18).
With KFMGSMLYESRMENSVA, NASQRES, QQYHRLPLS the result was -0.19, -0.20, 0.23, -0.02, 0.23, 0.31 (mean 0.06; controls 1 of 18).
With KAQQSELYEDRNQNSVA, SASQRLS, QQYHRLPLS the result was 0.15, -0.20, -0.03, -0.04, -0.07, -0.04 (mean -0.04; controls 0 of 18).
With KVPQSWLYESRMKQSVA, NASERES, QQYHRLPLS the result was 0.10, 0.54, 0.17, 0.42, 0.38, 0.05 (mean 0.28; controls 0 of 18).
With KASWSNLYESRNANSVA, NASQRCS, QQYHRLPLS the result was -0.05, -0.01, -0.19, -0.47, -0.25, -0.05 (mean -0.17; controls 0 of 18).
With KVPQSMLYESRNANNVA, NAEQRES, QQYHRLPLS the result was -0.14, -0.22, -0.37, -0.35, -0.41, 0.00 (mean -0.25; controls 0 of 18).
With KLQQSMDYESRNDNSVA, HASMRES, QQYHRLPLF the result was 0.20, -0.16, -0.16, -0.20, -0.14, 0.03 (mean -0.07; controls 2 of 18).
With KLHQSDGYEQRNKNSVA, SASTRSH, QQYHRLPLS the result was 0.44, 0.25, 0.26, 0.18, 0.18, 0.29 (mean 0.27; controls 1 of 18).
With KWQWGWLYESRNKNSVA, EGSTRES, QQYHRLPLS the result was -0.22, -0.14, -0.09, -0.07, -0.24, 0.11 (mean -0.11; controls 1 of 18).
With KLSQSVLYEPRNKQSVA, DASTRYS, QQYHRLPLS the result was -0.29, -0.50, -0.47, -0.36, -0.52, -0.37 (mean -0.42; controls 0 of 18).
With KLQMSNWYESRMHNSVA, DASVRES, QQYHRLPLS the result was -0.19, -0.36, -0.44, -0.64, -0.62, -0.28 (mean -0.42; controls 1 of 18).
With KQSQSELYESRNSNSVA, DASQRED, QDYHRLPLS the result was 0.35, 0.61, 0.22, 0.49, 0.36, 0.44 (mean 0.41; controls 0 of 18).
With KMQQSGLMESRNVNSVA, HASLRLE, QQYHRLPLS the result was 0.72, 0.56, 0.37, 0.63, 0.54, 0.78 (mean 0.60; controls 1 of 18).
With KFSQGYPYEQRNKNSVA, NASQRES, QQYHRLPLS the result was -0.22, 0.09, -0.16, -0.30, -0.27, -0.10 (mean -0.16; controls 1 of 18).
With KVMQSVPYESRNKNSVA, NASQREL, QQYHRLPLS the result was 0.50, 0.26, 0.15, 0.47, 0.41, 0.60 (mean 0.40; controls 2 of 18).
With KFQQSDGYESRNKNSVA, EASTRSS, QQYHRLPLS the result was 0.26, 0.00, 0.08, -0.18, -0.20, 0.08 (mean 0.01; controls 1 of 18).
With KVMQSMWYESRNQNSVA, HASTREQ, QQYHRLPLQ the result was 1.97, 2.32, 2.68, 2.34, 2.17, 3.37 (mean 2.48; controls 0 of 18).
With FLSQSVLYESREDNSVA, NASQRCS, QQYHRLPLS the result was -0.03, -0.16, -0.41, -0.04, -0.09, 0.16 (mean -0.09; controls 0 of 18).
With KFSCGVDYESRNKNSVA, GGSTRES, QQYHRLPLS the result was 0.31, 0.34, 0.39, -0.07, 0.47, 0.32 (mean 0.29; controls 1 of 18).
With KVMQSVLYESRNKNNVA, NASTREL, QQYHRLPLS the result was -0.03, -0.19, -0.10, -0.24, -0.04, -0.13 (mean -0.12; controls 2 of 18).
With KQDQSDWLQSRNVNSVA, QASTRES, QQYHRLPLS the result was 0.84, 0.01, 0.37, 0.37, 0.48, 0.33 (mean 0.40; controls 1 of 18).
With LLSQQNLYEDRNKNSVA, NASQRLS, QQYHRLPLS the result was 0.04, 0.15, -0.04, 0.12, 0.04, -0.05 (mean 0.04; controls 0 of 18).
With ALQQLELYGSRNKNSVA, NASTRED, QQYHRLPLS the result was 0.92, 0.26, -0.11, -0.06, 0.72, -0.07 (mean 0.28; controls 1 of 18).
With KLQWLWLYSSRNKNSVA, NASTRES, QQYHRLPLS the result was 0.65, 0.26, 0.20, 0.37, 0.05, 0.57 (mean 0.35; controls 1 of 18).
With KFEGSWLYESRNGNSVA, QASTRSS, QQYHRLPLS the result was 0.41, 0.32, 0.30, 0.24, 0.28, 0.52 (mean 0.35; controls 1 of 18).
With KLSQSQLYLSRNMNAVA, NASQRMS, QQYHRLPLS the result was -0.35, -0.47, -0.43, -0.60, -0.53, -0.36 (mean -0.46; controls 4 of 18).
With KLMQEDEYQSRMKNSVA, HASERES, QQYHRLPLS the result was 0.25, 0.03, -0.01, -0.09, -0.08, 0.13 (mean 0.04; controls 0 of 18).
With KLQFSCLYESRNKNSVA, DASYRLS, QQYHRLPLS the result was 0.64, 0.88, 0.52, 1.16, 0.30, 1.07 (mean 0.76; controls 1 of 18).
With TLQQSWEYESRNKNSVA, NASQRED, QQYHRLPLS the result was 0.10, 0.13, 0.09, 0.02, 0.07, 0.22 (mean 0.11; controls 0 of 18).
With KLSQSWWMESRNPNNVA, HASKRES, QQYHRLPLS the result was 0.30, 0.11, -0.05, -0.12, 0.17, 0.32 (mean 0.12; controls 2 of 18).
With KFMQSMGYESRNQNNVA, DASTRMS, QQYHRLPLS the result was -0.42, -0.28, -0.18, -0.31, -0.28, 0.03 (mean -0.24; controls 0 of 18).

The opening 6 entries, copied out:

CDR-L1,CDR-L2,CDR-L3,log10 Kd (nM) by replicate,"log10 Kd (nM), mean",control signals
KASQEVLMESRNMNSVA,NASTREE,QQYHRLPLS,"0.02, 0.11, -0.44, -0.10, -0.27, -0.28",-0.16,0/18
KYPQSELYESRNQNSVA,MASQREE,QQYHRLPLS,"0.18, -0.05, 0.28, -0.19, -0.31, 0.06",-0.01,0/18
KLQQSVEYESRNKNNVA,EGSQRES,QQYHRLPLS,"0.11, 0.11, 0.10, 0.17, 0.08, 0.42",0.17,1/18
KISQEVWYESRNKNSVA,GASQRES,QQYHRLPLS,"0.78, -0.02, 0.47, 0.10, 0.41, 0.38",0.35,1/18
KLSGSMLYEQRMKNSVA,QASQRMS,QDYHRLPLS,"0.48, 0.39, 0.40, 0.40, 0.56, 0.63",0.48,4/18
KVSQSHLYEERNANNVA,NASDRES,QQYHRLPLS,"-0.32, -0.40, -0.53, -0.54, -0.55, -0.23",-0.43,0/18